Ab-95 light chain CDR variants: yeast mating affinities

Binding partner: SARS-CoV-2 spike HR2 peptide, sequence PDVDLGDISGINAS.

Parent scFv Ab-95: VH joined to VL by the linker GGGGSGGGGSGGGGS. Changes lie in the light chain CDRs alone.
VH: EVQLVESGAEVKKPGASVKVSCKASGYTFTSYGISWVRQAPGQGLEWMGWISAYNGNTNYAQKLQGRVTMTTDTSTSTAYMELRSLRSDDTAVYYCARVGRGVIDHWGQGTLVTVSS
VL: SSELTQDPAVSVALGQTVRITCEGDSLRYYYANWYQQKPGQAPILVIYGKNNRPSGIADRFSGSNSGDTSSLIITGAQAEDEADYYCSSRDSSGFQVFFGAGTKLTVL

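The parent was found by panning a naive human phage display library on the peptide. AAYL52 was designed without a model: most single CDR substitutions and a random sample of double and triple ones. The scFvs were displayed on barcoded MATa yeast, the peptide on MATalpha yeast. Mating (16 h, 30 °C) was followed by selection of diploids and sequencing of their barcodes. The ratio of observed to expected reads was calibrated, replicate by replicate, on BCL2-family standards whose Kd was known from biolayer interferometry. Each pool was mated in three replicate cultures.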

The parent's light chain CDRs are EGDSLRYYYAN, GKNNRPS, SSRDSSGFQVF; each variant's own CDRs replace them letter for letter.
This list gathers variants with a substitution at P54 (VL, numbered from residue 1).
Each Kd is an estimate from the mating assay, the geometric mean of the replicates in which the pair was seen; lower is stronger.
"nd" means that the variant was in the library but no mating with the target was seen in any replicate; the authors take this as a sign of poor binding, and no number exists.

With EGDHLRYYYCN / GKNNRNS / SSRDSSGFQVF the result was 38 µM (2 of 3 replicates).
With EGDSLEYYYAN / GKNNRRK / SSRDSSGFQVF the result was 1.6 µM (1 of 3 replicates).
With EGDSRRYYYAN / GGNNRQS / SSRDSSGFQVF the result was 1.9 µM (3 of 3 replicates).
With EADSLRYYYAN / GKNNRCY / SSRDSSGFQVF the result was nd (0 of 3 replicates).
With EGDSLKYYYAN / GKNNRLS / SSRDQSGFQVF the result was 290 nM (3 of 3 replicates).
With EGDSLRYYYAN / GKYNRAS / SSRDSSGFWVF the result was nd (0 of 3 replicates).
With MGDSLRYYYAN / GKNARGS / SSRDSSGFQVF the result was 290 nM (3 of 3 replicates).
With EGDSLRYCYAN / GKNNRSS / SSRDSSGFQVF the result was 950 nM (3 of 3 replicates).
With EGDSLRYYYAN / GKNNRMS / SSRDSLGFQVQ the result was 1.3 µM (2 of 3 replicates).
With EGDSLRWYYAN / GKNNRDS / SSRDSSSFQVF the result was 2.4 µM (3 of 3 replicates).
With EGDSLRYYYAN / GKNNRWA / SDRDSSGFQVF the result was 14 µM (2 of 3 replicates).
With EGDSHRYYYAN / GKNNRAS / SSRDSSGFQYF the result was 3.0 µM (1 of 3 replicates).
With EGDSLRYYYAN / GKNNRVS / SSVDSSGFQVW the result was nd (0 of 3 replicates).
With EGRSLRNYYAN / GKNNRMS / SSRDSSGFQVF the result was 21 nM (3 of 3 replicates).
With EGDSLRYYYAN / GKNNRCS / SSRDSSGFQVF the result was 630 nM (3 of 3 replicates).
With EGDSLRNYYAN / GKNNRHS / SSRDSSGFQVF the result was 160 nM (3 of 3 replicates).
With EGDSLRVYYAN / GKNNRES / MSRDSSGFQVF the result was 8.2 µM (3 of 3 replicates).
With EGDSLRYYYAN / GKNNRYS / SSADSSTFQVF the result was 25 µM (2 of 3 replicates).
With EGDSLRYYYGN / GKNNRGI / SSRDSSGFQVF the result was 1.4 µM (3 of 3 replicates).
With EMDSLRYYYAN / GKNNRNS / SSRDSSGFQVF the result was 9.5 µM (1 of 3 replicates).
With EWDSLRYYYAN / GKNNRGS / SSRDSEGFQVF the result was nd (0 of 3 replicates).
With EGDSLRYYSAN / GKNNRNS / SSTDSSGFQVF the result was 8.7 µM (3 of 3 replicates).
With EGDSLVYYYAN / GKNNRQS / SSRDSSGFHVF the result was 2.5 µM (1 of 3 replicates).
With EGDSLAYYYIN / GKNNRQS / SSRDSSGFQVF the result was 4.3 µM (2 of 3 replicates).
With EGDSLRYYRAN / GKNNRLS / SSRFSSGFQVF the result was 190 µM (1 of 3 replicates).
With EGDSLRDYAAN / GKNNRKS / SSRDSSGFQVF the result was 130 nM (3 of 3 replicates).
With EGDSLRYYPAN / GKNNRRS / SSRDSSPFQVF the result was 3.8 µM (3 of 3 replicates).
With EGDSLRMYYAN / GKNNRNS / SSRDSSGSQVF the result was 680 nM (1 of 3 replicates).
With EGDMLRYYYAN / NKNNRQS / SSRDSSGFQVF the result was 20 µM (1 of 3 replicates).
With EGDSLRYYYAN / GKNNRGS / SSRDSEDFQVF the result was 130 nM (3 of 3 replicates).
With EGDSLRYYYAN / TDNNRCS / SSRDSSGFQVF the result was 14 µM (1 of 3 replicates).
With EGDSLRYYYAN / GKNNRVS / SIYDSSGFQVF the result was 1.2 µM (3 of 3 replicates).
With HGDSLRYYYAN / GKNNRSS / GSRDSSGFQVF the result was 730 nM (3 of 3 replicates).
With EGDSLRYMYAN / GKNNRMS / SSRDSSGFQVP the result was 520 nM (3 of 3 replicates).

Top 3 of the variants detected in all replicates, tightest first:

{"CDR-L1": "EGRSLRNYYAN", "CDR-L2": "GKNNRMS", "CDR-L3": "SSRDSSGFQVF", "apparent Kd": "21 nM", "seen in": "3 of 3"}
{"CDR-L1": "EGDSLRDYAAN", "CDR-L2": "GKNNRKS", "CDR-L3": "SSRDSSGFQVF", "apparent Kd": "130 nM", "seen in": "3 of 3"}
{"CDR-L1": "EGDSLRYYYAN", "CDR-L2": "GKNNRGS", "CDR-L3": "SSRDSEDFQVF", "apparent Kd": "130 nM", "seen in": "3 of 3"}

Background: pairings of library AAYL52 with three empty control strains gave a value in 28% of cases (median 8.2 µM, 5th percentile 800 nM). Values in that range, when seen in few replicates, are hard to tell from nonspecific mating.
For reference, the parent read 200 nM as the reference entry and 180 nM as a member of this library.

Source: Engelhart et al. 2022 (doi:10.1038/s41597-022-01779-4), MIT Lincoln Laboratory and A-Alpha Bio; data file from the FLAb repository.